According to US4636518A, “Imidazole derivatives and pharmaceutical compositions” (G. D. Searle & Co., priority 1981, dated 1987):

System: collagen induced aggregation of human prp
Assay: Inhibition of platelet aggregation in vitro, collagen induced (turbidometric)
Assay type: cell-based
Conditions: read-out: I.C.50 (μM) vs COLLAGEN
Method: (a) Platelet rich plasma (prp) preparation
Human venous blood was […] from healthy male donors, who had denied any medication during the previous 14 days. […] The citrated blood was centrifuged at 160 g for 10 mins. at 22° C. to obtain platelet rich plasma (prp). The platelets were then counted on a Coulter counter, and the platelet count was adjusted to 200,000 per μl with plasma.
Inhibition of Platelet Aggregation in vitro

## CC(=O)Oc1ccccc1C(=O)O [aspirin, reference compound]
  IC50: 106 µM
